Earlier results on 1 compound are cited in patent US11517561B2, “Macrocycle and composition comprising thereof” (Shenzhen TargetRx, Inc., priority 2017, dated 2022).

For this data set the following is noted: patients treated with crizotinib.

Structures are written as SMILES.

As for `C[C@@H](Oc1cc(-c2cnn(C3CCNCC3)c2)cnc1N)c1c(Cl)ccc(F)c1Cl` [Crizotinib], the “3-4 level of hepatic aminotransferase increase, share of cases” value is 16%.
